Values of other authors, collected in US8658351B2, “Determining liver toxicity of an agent using metabolite biomarkers” (Metabolon, Inc., priority 2009, dated 2014).

Tests used:
Rats = details: High dose; agents known to induce distinct types of liver histopathology; cited from earlier work
humans = details: cited from earlier work

Row | SMILES | Classification of toxic effect on liver histopathology (type of histopathology) (Rats) | Hepatotoxicity to humans (humans)
1 | S=C=Nc1cccc2ccccc12 [ANIT, 1-naphthyl isothiocyanate] | Cholestasis | 
2 | CS(=O)(=O)Nc1ccc([N+](=O)[O-])cc1Oc1ccccc1 [Nimesulide] |  | known hepatotoxins to humans
